Measured values taken from US7527952B2, “Crystals of inosine monophosphate dehydrogenase/oxidized inosine monophosphate thiomidate intermediate/mycophenolic acid (IIMPDH/XMP*/MPA)” (Vertex Pharmaceuticals Incorporated, priority 1996, dated 2009).

Amino acid sequences for entries named in this document (tags omitted).
UniProt P12269, whole entry: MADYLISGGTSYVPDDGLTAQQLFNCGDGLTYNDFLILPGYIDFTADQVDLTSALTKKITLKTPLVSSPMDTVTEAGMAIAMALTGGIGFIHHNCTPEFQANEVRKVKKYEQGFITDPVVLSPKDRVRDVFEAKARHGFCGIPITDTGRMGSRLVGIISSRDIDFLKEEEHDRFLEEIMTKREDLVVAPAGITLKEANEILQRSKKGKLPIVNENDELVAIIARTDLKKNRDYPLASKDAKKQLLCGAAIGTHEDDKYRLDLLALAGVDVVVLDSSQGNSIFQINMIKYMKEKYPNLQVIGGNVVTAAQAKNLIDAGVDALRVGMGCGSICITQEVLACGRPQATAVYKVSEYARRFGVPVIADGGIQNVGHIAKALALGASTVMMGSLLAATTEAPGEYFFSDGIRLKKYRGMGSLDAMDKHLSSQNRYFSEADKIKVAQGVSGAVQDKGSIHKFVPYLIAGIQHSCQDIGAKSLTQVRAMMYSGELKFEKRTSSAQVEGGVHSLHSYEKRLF

Tests used:
Assay type in all cases: biochemical
[1] = biological target: T1, human type II IMPDH Thr 333 to Ile mutant (Homo sapiens, UniProt P12268, T333I); test: MPA inhibition of IMPDH mutant, Thr 333 to Ile (Ki app.); conditions: Thr 333 substituted with Ile; saturating IMP and NAD
T1 construct: The full length IMPDH cDNA carrying the confirmed mutation was then subcloned into a pSPC27 vector; made in house; host or cells: E. coli strain H712 (IMPDH-deficient), pSPC27 vector

[2] = biological target: T2, human type II IMPDH Gln 441 to Ala mutant (Homo sapiens, UniProt P12268, Q441A); test: MPA inhibition of IMPDH mutant, Gln 441 to Ala (Ki app.); conditions: Gln 441 substituted with Ala; saturating IMP and NAD
T2 construct: The full length IMPDH cDNA carrying the confirmed mutation was then subcloned into a pSPC27 vector; made in house; host or cells: E. coli strain H712 (IMPDH-deficient), pSPC27 vector

[3] = biological target: T3, human type II IMPDH Ser 276 to Ala mutant (Homo sapiens, UniProt P12268, S276A); test: MPA inhibition of IMPDH mutant, Ser 276 to Ala (Ki app.); conditions: Ser 276 mutated to Ala; saturating IMP and NAD
T3 construct: The full length IMPDH cDNA carrying the confirmed mutation was then subcloned into a pSPC27 vector; made in house; host or cells: E. coli strain H712 (IMPDH-deficient), pSPC27 vector

[4] = biological target: Chinese hamster IMPDH (Cricetulus griseus, UniProt P12269); test: Inhibition of Chinese hamster IMPDH

mycophenolic acid [MPA] was tested, and the “increase of Ki app. of MPA relative to wild type” value [1] was 300 fold, the “increase of Ki app. of MPA relative to wild type” value [2] was 25 fold and the “increase in Ki app. of MPA relative to wild type” value [3] was 7 fold. For the same substance, the “type of inhibition of Chinese hamster IMPDH” value [4] was “potent, uncompetitive, inhibitor”.
